Consider four compounds from ChEMBL document CHEMBL1136171, “Acetylenic TACE inhibitors. Part 1. SAR of the acyclic sulfonamide hydroxamates” (Bioorg Med Chem Lett, 2003).

Sequences of proteins named here, by UniProt entry; tags and fusion partners are left off. A change or cut given only in a name is not applied to a line headed by its entry.
UniProt P78536: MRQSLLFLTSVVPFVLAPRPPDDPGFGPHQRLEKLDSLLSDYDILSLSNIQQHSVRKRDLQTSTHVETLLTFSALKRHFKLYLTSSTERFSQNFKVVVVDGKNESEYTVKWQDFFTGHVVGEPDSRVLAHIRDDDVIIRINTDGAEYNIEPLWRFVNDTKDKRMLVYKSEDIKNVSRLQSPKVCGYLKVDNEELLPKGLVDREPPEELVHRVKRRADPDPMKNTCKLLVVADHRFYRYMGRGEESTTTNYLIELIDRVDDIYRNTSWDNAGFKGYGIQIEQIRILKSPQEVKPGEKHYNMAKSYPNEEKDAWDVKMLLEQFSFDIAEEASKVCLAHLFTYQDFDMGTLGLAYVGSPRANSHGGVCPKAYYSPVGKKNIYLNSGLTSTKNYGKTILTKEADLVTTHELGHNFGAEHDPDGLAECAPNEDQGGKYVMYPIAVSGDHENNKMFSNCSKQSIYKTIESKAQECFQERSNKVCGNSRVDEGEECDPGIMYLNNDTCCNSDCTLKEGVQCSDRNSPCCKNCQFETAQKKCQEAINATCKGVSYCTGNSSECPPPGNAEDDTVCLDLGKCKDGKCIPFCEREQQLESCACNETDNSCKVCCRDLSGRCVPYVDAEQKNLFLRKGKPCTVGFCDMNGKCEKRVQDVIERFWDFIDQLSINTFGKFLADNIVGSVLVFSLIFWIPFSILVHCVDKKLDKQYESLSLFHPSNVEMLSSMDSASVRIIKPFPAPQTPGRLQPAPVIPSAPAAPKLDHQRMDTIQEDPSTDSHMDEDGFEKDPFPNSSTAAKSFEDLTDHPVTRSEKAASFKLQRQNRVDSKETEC

Test [1] has as its target Disintegrin and metalloproteinase domain-containing protein 17 (Homo sapiens, UniProt P78536). In words: In vitro inhibition of tumor necrosis factor-alpha converting enzyme.
The target of test [2] is Collagenase 3 (Homo sapiens, UniProt P45452).
For test [3], the target named is T1, Interstitial collagenase (Homo sapiens, UniProt P03956).
T1 sequence (P03956 whole entry): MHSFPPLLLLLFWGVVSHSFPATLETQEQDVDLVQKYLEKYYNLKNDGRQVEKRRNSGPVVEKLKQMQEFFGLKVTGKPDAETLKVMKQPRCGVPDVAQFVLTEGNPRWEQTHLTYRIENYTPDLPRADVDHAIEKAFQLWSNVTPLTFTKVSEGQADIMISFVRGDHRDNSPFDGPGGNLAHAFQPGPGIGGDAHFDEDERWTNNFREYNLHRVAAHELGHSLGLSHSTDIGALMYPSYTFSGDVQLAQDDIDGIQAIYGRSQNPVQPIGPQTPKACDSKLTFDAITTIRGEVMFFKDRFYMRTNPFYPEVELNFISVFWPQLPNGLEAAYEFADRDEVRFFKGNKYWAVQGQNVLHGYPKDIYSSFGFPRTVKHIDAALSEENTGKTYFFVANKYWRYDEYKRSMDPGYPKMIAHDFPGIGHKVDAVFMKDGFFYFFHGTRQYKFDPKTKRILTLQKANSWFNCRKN
In words: In vitro inhibition of Matrix metalloprotein 1.

Turning to `CC#CCOc1ccc(S(=O)(=O)N(C)C(CSCc2cccnc2)C(=O)NO)cc1` (centres undefined), the IC50 (as a rule, the midpoint of a concentration-inhibition curve) in test [1] is 6 nM. As for `CC#CCOc1ccc(S(=O)(=O)N[C@@H](C(=O)NO)c2ccc(OCCNC)cc2)cc1`, in test [2], the IC50 was 146 nM. For `CC#CCOc1ccc(S(=O)(=O)N(C)C(C(=O)NO)C(C)(C)SCc2cccnc2)cc1` (centres undefined), in test [3], the IC50 is 9 nM.

On to `CC#CCOc1ccc(S(=O)(=O)N(C)[C@@H](C(=O)NO)c2ccc(OCCNC)cc2)cc1`, for which, in test [2], the IC50 is 27 nM.
